# Yeast mating assay B: variants of the scFv Ab-14

Binding partner: SARS-CoV-2 spike HR2 peptide, sequence PDVDLGDISGINAS.

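The starting antibody came from a phage panning campaign against this peptide. These sequences belong to a second round, designed from the earlier measurements on random variants of the parent. Group labels follow the data file (Ctrl: baseline library sampled from a position-specific scoring matrix, with some repeated check sequences; En: ensemble of fine-tuned language models; GP: Gaussian process model; HC: hill climbing; Gen: genetic algorithm; Gibbs: Gibbs sampling; a sequence that several methods proposed may carry one label only). AlphaSeq pools MATa yeast showing the antibodies with MATalpha yeast showing the peptide. After mating in shaken culture at 30 °C for 16 h, diploids were selected and their barcode pairs sequenced. Each replicate has its own calibration line, from reference interactions of the BCL2 family. There are six technical replicates.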

The variants keep the heavy chain, the linker and the frameworks of Ab-14 (scFv order VH, the linker GGGGSGGGGSGGGGS, VL).
VH: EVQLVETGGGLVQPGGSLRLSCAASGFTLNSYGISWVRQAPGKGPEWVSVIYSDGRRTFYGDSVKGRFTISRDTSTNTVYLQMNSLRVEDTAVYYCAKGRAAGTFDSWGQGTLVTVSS
VL: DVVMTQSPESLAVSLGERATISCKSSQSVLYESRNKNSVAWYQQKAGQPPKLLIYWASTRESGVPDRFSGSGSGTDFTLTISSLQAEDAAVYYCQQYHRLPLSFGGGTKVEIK

Variants are written as CDR1, CDR2 and CDR3 of the light chain (limits as in the source). Parent: KSSQSVLYESRNKNSVA, WASTRES, QQYHRLPLS.
The read-out is the apparent dissociation constant on a log10 scale (nM): the lower, the stronger.
The mean shown is taken over the replicates in which the pair was detected.
A pair that was not seen in any replicate is written "no signal"; this usually means weak binding, but a binder can also be missed.
Of ten entries with the parent sequence, four were seen in most replicates (averages 0.34 to 2.37), three in one and three in none, so single entries are noisy.

KLGMWMYWPTEAKYAIA / QDEMRVH / QQYDRLPLI [En_Gibbs]: no signal (0 of 6 replicates).
KLKQSTLYESRNKNSVA / NASTRLS / QQYHRLPLS [GP_HC]: 0.43 (6 of 6 replicates).
HLSQSVLYEDRNKNSVA / NASTRES / QQYHRLPLS [GP_Gen]: -0.04 (6 of 6 replicates).
QSSQSYLYESRNKNNVA / WASTRES / QQYHRLPLT [Ctrl]: 2.34 (1 of 6 replicates).
KDSQSVLKESRNKNSVA / FASTRLS / QQYHRLPLS [Ctrl]: no signal (0 of 6 replicates).
KVSQGFLYEERQKNSVA / NASQRES / QQYHRLPLS [GP_Gibbs]: 0.57 (6 of 6 replicates).
IISQSMLYESATHNSIA / QTSTREE / QQYHHLPLI [En_HC]: 1.07 (6 of 6 replicates).
KSYQAVLEESRNKNSVA / MASTRES / QAYHRLPSS [Ctrl]: no signal (0 of 6 replicates).
KSSHSVLYESRNKNSVA / WASKRES / QQYHRLPLS [Ctrl]: 2.71 (1 of 6 replicates).
KLSQSVLYESRNKNSVA / GASTRES / QQYHRLPLQ [GP_Gen]: -0.39 (6 of 6 replicates).
KLSQQGHYGSRNANSVA / NASQREQ / QQYHRLPLS [GP_Gibbs]: 0.14 (6 of 6 replicates).
TLTQSVGMESHNKNSVA / DLSTRGN / QQYHRLPLS [En_HC]: 0.88 (6 of 6 replicates).
KVSQSVLLESTNKNSVA / AASTRES / QQYHRLPLS [Ctrl]: 0.71 (6 of 6 replicates).
KLSQSHLYESRNSNNVA / MASYRMV / QQYHRLPLS [GP_Gibbs]: 0.16 (6 of 6 replicates).
KQSPSVLQESRNKNSVA / DASTRES / QQYHRLPLS [GP_HC]: -0.08 (6 of 6 replicates).
KVSQSVLMESRNKNSVA / EASTRQS / QQYHRLPLS [GP_HC]: -0.21 (6 of 6 replicates).
KVEGSHLYESRNGNSVA / NASTRED / QQYHRLPLS [GP_Gibbs]: 0.36 (6 of 6 replicates).
KSGQSVLYESRNKNSVA / GASLRES / QQYHRLPLS [GP_HC]: 0.07 (6 of 6 replicates).
KITATMRFEQKASNNIA / EVTTRSK / QQYFRLPLS [En_Gen]: 0.64 (6 of 6 replicates).
KLSQSQLYESRNKNSVA / EASQRES / QQYHRLPLS [GP_Gen]: 0.10 (6 of 6 replicates).
TIGGTLMFGMRNRSNVA / EVSERLN / QQYDRLPLI [En_Gen]: 2.35 (6 of 6 replicates).
KIGMTLNMLEHKQNNVA / DLVERGN / QQYFRLPLS [En_Gen]: 0.78 (6 of 6 replicates).
HIGGVLEGENVKGRSVA / HMNTRVD / QQYDRLPLS [En_Gen]: 0.69 (6 of 6 replicates).
TLGASTLEESRNKNSVA / EMSLREE / QSYNRLPLS [En_HC]: 1.01 (6 of 6 replicates).
KLSQSGLYESRNKNSVA / HASTRES / QDYHRLPLS [GP_Gen]: -0.22 (6 of 6 replicates).
KFHQSNLYESRNKNSVA / AASTRES / QQYHRLPLS [Ctrl]: 0.12 (6 of 6 replicates).
TLSQMSGLEAVKHNNVA / ENSTREK / QQYDRLPLT [En_Gen]: 1.76 (6 of 6 replicates).
FIEGFGEDSNRNSKNIA / SKELRQV / QQYDRLPLS [En_Gibbs]: 0.39 (6 of 6 replicates).
KISMLQRYENQNKNSIA / EMSRREN / QQYHRLPLS [En_HC]: 0.63 (6 of 6 replicates).
KLSNSYEYESRNMNSVA / NASTRLE / QQYHRLPLS [GP_Gibbs]: -0.35 (6 of 6 replicates).
KIYSMTGFQSRNADSIA / DNSTRGR / QQYHRLPLS [En_HC]: 1.89 (6 of 6 replicates).
HLQEQSFVGQKDKWSVA / ESECKYN / QQYAQLPLM [En_Gibbs]: 2.07 (6 of 6 replicates).
KSSQSVLYESRNKNSVA / HASTCES / QQTHRDPLS [Ctrl]: no signal (0 of 6 replicates).
TLYGLSVSMSKNTNSVA / EMTTRED / QQYDRLPLI [En_Gen]: 1.82 (6 of 6 replicates).
KSSQSYYYESRNKNSVA / GASTRES / QQYHRLPLS [GP_HC]: 0.40 (6 of 6 replicates).
KMSQSMGYEERNKNSVA / NASQRMS / QQYHRLPLS [GP_Gibbs]: -0.28 (6 of 6 replicates).
TISQMWVIESKNKNNVA / EMTTREN / QDYDRLPLS [En_HC]: 0.13 (6 of 6 replicates).
TLTQVTMVESYGKNSVA / QASTRLE / QDYHRLPLS [En_HC]: 0.92 (6 of 6 replicates).
MISNVMNTLTRYGNNVA / DLENRED / QQYFRLPLS [En_Gen]: 1.18 (6 of 6 replicates).
LLWQDMYNGRNQANAVA / EGNILAN / QQYARLPFS [En_Gibbs]: 0.56 (6 of 6 replicates).
HMSMLTLQGQRHRNSVA / QMTTREN / QQYDHLPLS [En_Gen]: 0.56 (6 of 6 replicates).
KLSQTHGMEMVNRNSVA / ELVTRMS / QQYNRLPLS [En_Gen]: 2.18 (1 of 6 replicates).
KLRMLTLTGGYFKNSVA / QAETREN / QSYHRLPLA [En_HC]: 1.05 (5 of 6 replicates).
KSSQSVLYESRNKNSVA / AASTREQ / QQYHRLPLS [Ctrl]: 0.72 (6 of 6 replicates).
KSSQSVLYERVNKNSVA / WYSTRVS / QQYHRLPLS [Ctrl]: no signal (0 of 6 replicates).
KLSQSVLYESRMKNSVA / NASTREQ / QQYHRLPLS [GP_Gen]: -0.33 (6 of 6 replicates).
KSSGSGLYESRMKNSVA / EASTRES / QQYHRLPLS [GP_HC]: -0.03 (6 of 6 replicates).
KFLQSVLYESRNKNSVA / HASTREQ / QQYHFLPLS [GP_HC]: 1.00 (6 of 6 replicates).
SFDLTKSGMENEQYSIA / ERNVLMT / QDYHRLPLA [En_Gibbs]: 2.62 (1 of 6 replicates).

5 of these entries, quoted again:

{"CDR-L1": "KSSQSVLYERVNKNSVA", "CDR-L2": "WYSTRVS", "CDR-L3": "QQYHRLPLS", "group": "Ctrl", "log10 Kd (nM), mean": "no signal", "replicates with signal": "0/6"}
{"CDR-L1": "KFLQSVLYESRNKNSVA", "CDR-L2": "HASTREQ", "CDR-L3": "QQYHFLPLS", "group": "GP_HC", "log10 Kd (nM), mean": "1.00", "replicates with signal": "6/6"}
{"CDR-L1": "MISNVMNTLTRYGNNVA", "CDR-L2": "DLENRED", "CDR-L3": "QQYFRLPLS", "group": "En_Gen", "log10 Kd (nM), mean": "1.18", "replicates with signal": "6/6"}
{"CDR-L1": "KSSGSGLYESRMKNSVA", "CDR-L2": "EASTRES", "CDR-L3": "QQYHRLPLS", "group": "GP_HC", "log10 Kd (nM), mean": "-0.03", "replicates with signal": "6/6"}
{"CDR-L1": "KVSQSVLMESRNKNSVA", "CDR-L2": "EASTRQS", "CDR-L3": "QQYHRLPLS", "group": "GP_HC", "log10 Kd (nM), mean": "-0.21", "replicates with signal": "6/6"}

A sequence measured in both rounds can read differently, since the two assays cover different ranges.
In the paper, a design with two or fewer of six values counts as a poor binder.
Background: pairings of all light chain designs with three empty control strains gave a value in 4% of cases (median 2.64, 5th percentile 1.59). Values in that range, when seen in few replicates, are hard to tell from nonspecific mating.

Data: MIT Lincoln Laboratory AlphaSeq set, Li et al. 2023, doi:10.1038/s41467-023-39022-2, as distributed in FLAb.